The test has as its target SARS-CoV-2 Nsp5 (Severe acute respiratory syndrome coronavirus 2, UniProt P0DTD1).

Each structure is given as a SMILES string.

For the compound `COc1cccc2[nH]c(C(=O)N[C@@H](CC(C)C)C(=O)N[C@@H](C[C@@H]3CCNC3=O)C(=O)CO)cc12` [PF-00835231], the “concentrations that significantly decreased the Gaussia luciferase signal (lowest significantly active dose)” value is 100 µM.

These data come from PMC11377810, “A Gaussia luciferase reporter assay for the evaluation of coronavirus Nsp5/3CLpro activity” (Scientific Reports, 2024).
